The chains behind the UniProt entries cited, without tags or fusion partners. Where a name states a change or a piece, a line headed by the entry shows the natural chain unless it says otherwise. Residues count along the entry.
UniProt Q16539, whole entry: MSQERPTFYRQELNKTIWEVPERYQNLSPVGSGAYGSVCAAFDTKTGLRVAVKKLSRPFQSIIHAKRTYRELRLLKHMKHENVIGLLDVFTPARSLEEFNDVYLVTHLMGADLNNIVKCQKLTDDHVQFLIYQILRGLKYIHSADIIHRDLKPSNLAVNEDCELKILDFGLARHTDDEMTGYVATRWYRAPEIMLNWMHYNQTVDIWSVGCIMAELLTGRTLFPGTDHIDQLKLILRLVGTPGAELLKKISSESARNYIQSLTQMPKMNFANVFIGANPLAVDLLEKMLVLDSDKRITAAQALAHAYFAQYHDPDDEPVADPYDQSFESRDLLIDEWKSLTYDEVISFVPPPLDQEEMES
UniProt P00519, whole entry: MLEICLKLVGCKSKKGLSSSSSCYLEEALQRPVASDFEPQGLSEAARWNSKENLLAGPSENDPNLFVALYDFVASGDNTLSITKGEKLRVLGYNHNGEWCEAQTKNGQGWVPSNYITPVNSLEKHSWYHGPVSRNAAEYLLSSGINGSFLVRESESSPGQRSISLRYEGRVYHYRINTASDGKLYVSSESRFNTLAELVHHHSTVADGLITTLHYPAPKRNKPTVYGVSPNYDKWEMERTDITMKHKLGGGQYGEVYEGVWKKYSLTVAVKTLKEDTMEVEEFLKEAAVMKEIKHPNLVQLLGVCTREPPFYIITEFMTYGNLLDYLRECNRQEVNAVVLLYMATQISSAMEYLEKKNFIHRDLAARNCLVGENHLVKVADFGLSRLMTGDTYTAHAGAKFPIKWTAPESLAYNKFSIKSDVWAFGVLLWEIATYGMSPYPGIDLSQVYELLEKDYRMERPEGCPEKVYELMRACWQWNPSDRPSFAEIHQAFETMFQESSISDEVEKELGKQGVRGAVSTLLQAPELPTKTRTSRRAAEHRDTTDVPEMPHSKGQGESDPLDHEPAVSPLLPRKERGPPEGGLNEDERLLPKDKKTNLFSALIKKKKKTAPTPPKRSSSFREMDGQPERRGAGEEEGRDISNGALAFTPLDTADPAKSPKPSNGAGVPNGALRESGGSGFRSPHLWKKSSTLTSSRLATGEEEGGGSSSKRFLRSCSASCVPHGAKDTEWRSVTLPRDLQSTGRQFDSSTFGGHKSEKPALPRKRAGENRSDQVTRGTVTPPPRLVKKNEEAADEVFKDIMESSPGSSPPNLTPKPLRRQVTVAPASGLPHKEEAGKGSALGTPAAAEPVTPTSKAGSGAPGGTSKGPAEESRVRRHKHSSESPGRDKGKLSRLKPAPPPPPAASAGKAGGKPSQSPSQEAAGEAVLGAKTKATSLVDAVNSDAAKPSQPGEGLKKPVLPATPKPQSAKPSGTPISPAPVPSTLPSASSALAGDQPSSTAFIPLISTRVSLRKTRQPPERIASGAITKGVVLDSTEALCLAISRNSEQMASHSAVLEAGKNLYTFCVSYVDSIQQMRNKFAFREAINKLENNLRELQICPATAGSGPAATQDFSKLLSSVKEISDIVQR
UniProt P17948, 27-1338: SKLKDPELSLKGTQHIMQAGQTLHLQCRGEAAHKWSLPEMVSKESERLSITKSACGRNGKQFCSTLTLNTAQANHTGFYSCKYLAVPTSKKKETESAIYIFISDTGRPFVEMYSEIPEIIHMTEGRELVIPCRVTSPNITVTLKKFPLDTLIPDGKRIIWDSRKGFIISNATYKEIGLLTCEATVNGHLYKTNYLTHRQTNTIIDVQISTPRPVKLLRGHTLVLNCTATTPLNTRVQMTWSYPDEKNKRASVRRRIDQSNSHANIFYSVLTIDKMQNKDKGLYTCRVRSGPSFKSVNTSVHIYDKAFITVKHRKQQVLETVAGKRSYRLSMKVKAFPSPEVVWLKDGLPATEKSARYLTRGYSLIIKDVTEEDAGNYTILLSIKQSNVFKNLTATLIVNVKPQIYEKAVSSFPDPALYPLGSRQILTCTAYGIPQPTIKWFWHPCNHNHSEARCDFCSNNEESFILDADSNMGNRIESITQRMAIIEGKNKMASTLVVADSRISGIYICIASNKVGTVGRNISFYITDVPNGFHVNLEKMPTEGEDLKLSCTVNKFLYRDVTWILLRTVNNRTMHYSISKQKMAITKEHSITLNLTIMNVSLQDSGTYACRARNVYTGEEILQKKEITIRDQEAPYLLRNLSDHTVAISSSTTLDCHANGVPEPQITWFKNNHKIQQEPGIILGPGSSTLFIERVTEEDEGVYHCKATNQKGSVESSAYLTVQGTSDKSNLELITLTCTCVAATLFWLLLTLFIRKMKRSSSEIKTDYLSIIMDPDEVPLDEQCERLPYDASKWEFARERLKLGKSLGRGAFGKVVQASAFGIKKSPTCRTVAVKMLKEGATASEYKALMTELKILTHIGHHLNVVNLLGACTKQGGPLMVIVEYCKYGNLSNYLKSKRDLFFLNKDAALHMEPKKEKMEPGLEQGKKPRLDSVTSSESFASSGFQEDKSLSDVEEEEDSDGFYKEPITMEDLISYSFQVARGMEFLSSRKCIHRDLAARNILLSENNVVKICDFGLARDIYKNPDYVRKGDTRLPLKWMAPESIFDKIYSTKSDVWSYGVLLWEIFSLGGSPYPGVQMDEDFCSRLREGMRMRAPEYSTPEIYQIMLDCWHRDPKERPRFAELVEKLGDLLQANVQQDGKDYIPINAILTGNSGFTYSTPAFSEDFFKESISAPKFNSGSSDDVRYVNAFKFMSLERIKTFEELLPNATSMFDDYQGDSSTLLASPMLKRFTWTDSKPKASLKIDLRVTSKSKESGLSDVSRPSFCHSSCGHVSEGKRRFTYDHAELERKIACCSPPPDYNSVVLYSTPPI
UniProt P06239: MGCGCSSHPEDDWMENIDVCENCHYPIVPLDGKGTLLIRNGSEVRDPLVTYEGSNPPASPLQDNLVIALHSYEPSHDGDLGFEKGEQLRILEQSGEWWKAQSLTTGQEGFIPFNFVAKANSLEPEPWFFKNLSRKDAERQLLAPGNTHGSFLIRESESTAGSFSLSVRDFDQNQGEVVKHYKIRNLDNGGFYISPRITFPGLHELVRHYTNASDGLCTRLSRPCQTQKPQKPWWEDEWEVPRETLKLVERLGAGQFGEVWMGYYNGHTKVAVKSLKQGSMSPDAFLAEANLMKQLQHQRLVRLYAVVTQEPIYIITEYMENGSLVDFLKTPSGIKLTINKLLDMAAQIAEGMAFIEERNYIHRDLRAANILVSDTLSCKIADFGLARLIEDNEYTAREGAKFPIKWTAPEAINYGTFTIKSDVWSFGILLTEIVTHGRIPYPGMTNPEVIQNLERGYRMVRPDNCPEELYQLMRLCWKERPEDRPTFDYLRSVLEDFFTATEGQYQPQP
UniProt P07948: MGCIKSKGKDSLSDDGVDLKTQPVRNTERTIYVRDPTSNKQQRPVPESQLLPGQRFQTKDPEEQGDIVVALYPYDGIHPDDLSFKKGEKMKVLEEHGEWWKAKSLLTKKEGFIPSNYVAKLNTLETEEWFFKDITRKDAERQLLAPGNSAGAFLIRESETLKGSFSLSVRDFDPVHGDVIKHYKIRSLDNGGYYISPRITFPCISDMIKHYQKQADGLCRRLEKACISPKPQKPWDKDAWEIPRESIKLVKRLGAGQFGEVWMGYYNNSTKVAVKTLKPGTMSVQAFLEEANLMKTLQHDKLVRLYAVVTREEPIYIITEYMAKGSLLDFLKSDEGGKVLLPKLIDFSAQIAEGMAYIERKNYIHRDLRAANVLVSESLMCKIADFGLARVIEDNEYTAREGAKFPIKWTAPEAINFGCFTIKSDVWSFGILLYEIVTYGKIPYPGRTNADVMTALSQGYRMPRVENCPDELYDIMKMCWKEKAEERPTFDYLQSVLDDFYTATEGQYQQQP
UniProt P04629, 33-796: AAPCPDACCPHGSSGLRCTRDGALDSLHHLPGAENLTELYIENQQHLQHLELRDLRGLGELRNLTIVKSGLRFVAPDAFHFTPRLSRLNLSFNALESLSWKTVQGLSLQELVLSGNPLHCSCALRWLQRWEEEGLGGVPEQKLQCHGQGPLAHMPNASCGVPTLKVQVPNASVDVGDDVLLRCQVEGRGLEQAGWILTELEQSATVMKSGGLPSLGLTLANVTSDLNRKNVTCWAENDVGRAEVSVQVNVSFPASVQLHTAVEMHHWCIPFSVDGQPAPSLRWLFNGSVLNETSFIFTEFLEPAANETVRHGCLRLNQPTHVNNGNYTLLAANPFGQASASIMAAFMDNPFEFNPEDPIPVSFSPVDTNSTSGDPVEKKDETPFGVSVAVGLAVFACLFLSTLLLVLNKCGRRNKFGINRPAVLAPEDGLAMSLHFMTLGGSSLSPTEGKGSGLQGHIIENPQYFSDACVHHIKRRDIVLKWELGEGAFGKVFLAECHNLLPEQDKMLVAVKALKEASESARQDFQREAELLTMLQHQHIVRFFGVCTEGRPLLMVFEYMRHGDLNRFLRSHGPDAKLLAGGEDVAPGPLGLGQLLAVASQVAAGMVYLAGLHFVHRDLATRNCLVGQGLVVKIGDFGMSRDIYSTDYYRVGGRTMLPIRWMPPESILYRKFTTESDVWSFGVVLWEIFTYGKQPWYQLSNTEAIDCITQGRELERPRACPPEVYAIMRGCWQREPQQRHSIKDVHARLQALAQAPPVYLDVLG

According to US8933070B2, “Methods of targeting PTEN mutant diseases and compositions therefor” (University Health Network, priority 2010, dated 2015):

Experiments:
Experiment in all cases: Kinase selectivity assay (CEREP, HTRF)
Assay type in all cases: biochemical
Details in all cases: read-out: % Inhibition at 10 μM Concentration
JNK 2 = JNK 2 (Homo sapiens, UniProt P45984)
Method: (§1) The inhibitory activity of selected compounds was evaluated against a panel of 45 different kinase enzymes by CEREP, France. The assays were performed using standard HTRF assay methods as documented by CEREP against the human orthologues of Abl kinase, Akt1/PKBa, AMPKa, BMX kinase (Etk), Brk, CaMK2a, CaMK4, CDC2/CDK1 (cycB), CHK1, CHK2, c-Met kinase, CSK, EphB4 kinase, ERK1, ERK2 (P42mapk), FGFR2 kinase, FGFR4 kinase, FLT-1 kinase (VEGFR1), FLT-3 kinase, Fyn kinase, IGF1R kinase, IRK (InsR), JNK 2, KDR kinase (VEGFR2), Lck kinase, Lyn kinase, MAPKAPK2, MEK1/MAP2K1, p38a kinase, p38d kinase, p38g kinase, PDGFRb kinase, PDK1, PKA, PKCa, PKCb1, PKCb2, PKCg, Ret kinase, ROCK2, RSK2, Src kinase, Syk, and TRKA. The % Inhibition was determined by the formula; % Inhibition=100×(1−(experimental value−background value)/(high activity control−background value)).

p38alpha = p38alpha (Homo sapiens, UniProt Q16539)
Method: as §1

Abl kinase = Abl kinase (Homo sapiens, UniProt P00519)
Method: as §1

FLT-1 (VEGFR1) = FLT-1 (VEGFR1) (Homo sapiens, UniProt P17948)
Method: as §1

Src = Src (Homo sapiens, UniProt P12931)
Method: as §1

Lck = Lck (Homo sapiens, UniProt P06239)
Method: as §1

Lyn = Lyn (Homo sapiens, UniProt P07948)
Method: as §1

TRKA = TRKA (Homo sapiens, UniProt P04629)
Method: as §1

Structure (SMILES): COc1ccc2c(c1)[C@@]1(C[C@@H]1c1ccc3c(-c4ccc(N5CCN(C)CC5)nc4)n[nH]c3c1)C(=O)N2 (racemic) [Compound 2]
- inhibition at 10 µM (JNK 2): 11%
- inhibition at 10 µM (p38alpha): -28%
- inhibition at 10 µM (Abl kinase): 91%
- inhibition at 10 µM (FLT-1 (VEGFR1)): 22%
- inhibition at 10 µM (Src): 13%
- inhibition at 10 µM (Lck): 71%
- inhibition at 10 µM (Lyn): 15%
- inhibition at 10 µM (TRKA): 93%
